Values of other authors in US6569839B1, “Fast-acting pharmaceutical compositions and methods of use” (priority 1998, dated 2003).

Settings: in vivo; cited from earlier work

SMILES: C[C@]12CCC(=O)C=C1CC[C@@H]1[C@@H]2[C@@H](O)C[C@@]2(C)[C@H]1CC[C@]2(O)C(=O)COC(=O)CCC(=O)O [Solu-Cortef, Hydrocortisone sodium succinate]
- duration of activity suppression: about 1.5 days
